Laboratory results: US12419874B2, “GLP-1R agonist compound and use thereof” (Chongqing Pharmaceutical Research Institute Co., Ltd., priority 2024, dated 2025)

How the values were obtained:
[1] = In vivo pharmacokinetics in Macaca fascicularis, intravenous; details: male Macaca fascicularis, 0.12 mg/kg
[2] = test system: GLP-1R humanized C57BL/6N mice fed with high-fat diets; assay: In vivo efficacy on body weight and food intake in high-fat diet hGLP-1R mice; details: gavage once daily; for Change Rate of Body Weight on Day 27: corrected by Vehicle

For `Cc1cc(-n2nc3c(c2-n2ccn(-c4ccc5c(cnn5C)c4F)c2=O)[C@H](C)N(C(=O)c2cc4cc([C@H]5CCOC(C)(C)C5)ccc4n2[C@@]2(c4noc(=O)[nH]4)C[C@@H]2C)CC3)cc(C)c1F`, which Cl [1] is on record?
The Cl was 10.5 mL/min/kg.

And the “Cumulative Food Intake on Day 27” value ([2]; 0.3 mpk)?
Its value is 75.41 ± 7.20 g.

And the “Change Rate of Body Weight on Day 27” value ([2]; 0.3 mpk)?
The value was −11.89 ± 1.27%.

What about the “Cumulative Food Intake on Day 27” value ([2]; 1.5 mpk) of the same molecule?
The value was 74.78 ± 3.64 g.

And the “Change Rate of Body Weight on Day 27” value ([2]; 1.5 mpk)?
The value was −13.71 ± 1.72%.
